## Ab-14 heavy chain CDR variants: yeast mating affinities

All variants were tested on one target, the spike HR2 peptide PDVDLGDISGINAS (SARS-CoV-2).

The variants keep the light chain, the linker and the frameworks of Ab-14 (scFv order VH, a (GGGGS)3 linker, VL).
VH: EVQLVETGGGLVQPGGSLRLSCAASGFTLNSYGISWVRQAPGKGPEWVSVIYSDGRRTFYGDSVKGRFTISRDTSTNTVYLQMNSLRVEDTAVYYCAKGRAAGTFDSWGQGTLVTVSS
VL: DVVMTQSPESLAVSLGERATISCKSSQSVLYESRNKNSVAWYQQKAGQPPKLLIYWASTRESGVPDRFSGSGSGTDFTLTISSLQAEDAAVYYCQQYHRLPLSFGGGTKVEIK

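The parent was found by panning a naive human phage display library on the peptide. Variants in AAYL49 differ from the parent at up to three CDR positions; double and triple changes were sampled at random. The assay is AlphaSeq: two haploid yeast populations carry antibody and antigen on their surface. Pairs that bind mate more often; barcode pairs of the diploids are counted by sequencing. Each replicate has its own calibration line, from reference interactions of the BCL2 family. The assay was run in three technical replicates.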

Each variant is given by its three heavy chain CDRs, as the data file delimits them; those of the parent are GFTLNSYGIS, VIYSDGRRTFYGDSVK, GRAAGTFDS.
Values are log10 of the apparent Kd in nM; lower means stronger binding.
"nd" means that the variant was in the library but no mating with the target was seen in that replicate; the authors take this as a sign of poor binding, and no number exists.
Empty control strains, which show no peptide, gave a signal in 15% of pairings with library AAYL49; the median was 4.06 and 95% of these signals were weaker than 2.83. No background was subtracted. The control count says in how many pairings with the empty strains this scFv gave a signal, with their mean in brackets.
For reference, the parent read 0.65 as the reference entry and 4.11 (one replicate of three) as a member of this library.

CDR-H1	CDR-H2	CDR-H3	log10 Kd, replicates	empty controls
GFTLNSYGIH	VIYSDHRRTFTGDSVK	GRAAGTFDS	nd nd 3.57	2/9 (4.19)
GHTLNSYGIS	VIDSDGRRTFYGDSVD	GRAAGTFDS	4.47 nd 5.20	5/9 (4.36)
GATLNSYGIS	VGYSDGRRTFYGASVK	GRAAGTFDS	4.55 4.06 5.15	7/9 (4.91)
GFTLTSYGIS	VIFSDGRRTFYGDSVK	HRAAGTFDS	nd nd nd	0/9
GFTLNSYGIS	VIYSDGRFTFYGDSVK	GRAAGTNVS	nd nd nd	0/9
GFTLNSPGIS	VIYSDGRRTFYGDSVK	GRAAGTFDS	nd nd nd	0/9
GFQLNSYGIS	VIYSDGRKTFYGDSVK	GRASGTFDS	nd nd nd	2/9 (3.46)
GFTLNSYPIS	VIYSDGRRTDYGDSVK	GCAAGTFDS	nd nd nd	3/9 (3.56)
GFTLNSYGIF	VIYSDGRRTFYGDSVK	GHTAGTFDS	nd nd nd	2/9 (4.43)
GFTLNSYGIS	VIYSQGCRTFYGPSVK	GRAAGTFDS	nd 3.21 nd	2/9 (3.58)
GFTLNSYGIS	VIYSDGRRECYGDSVK	GRAAGTFDS	nd nd nd	1/9 (3.07)
GFTLNSYQIS	VAYSDGRRDFYGDSVK	GRAAGTFDS	nd nd nd	0/9
GFTCLSYGIS	VIYSDGRRMFYGDSVK	GRAAGTFDS	nd 3.77 nd	2/9 (4.37)
GFTLNSMGFS	VIYSDGRRTFYGDSVK	GRAASTFDS	nd nd 3.74	1/9 (3.28)
GFTLYSYGIS	VIYSDGRRTFYGDTVK	GFAAGTFDS	3.48 3.64 5.95	2/9 (4.98)
GFTLNSYGIS	VIYMDGRRTFYGASVK	GRASGTFDS	5.69 nd nd	0/9
GFTLNKYGIS	VIYSDGRRTFYGDSVK	GRAAGTFIW	nd nd nd	1/9 (2.66)
GFTLNSYIIS	VIYSDGRRTLYGDSVK	GRQAGTFDS	nd nd nd	2/9 (4.90)
GFTLRFYGIS	VIYSDGRRTFYGDSVK	MRAAGTFDS	nd nd nd	2/9 (3.05)
GFTLNSYGIS	VIYSDGRRTFYHDFVK	GRAAGTIDS	nd nd 3.31	1/9 (3.39)
GFTLVSYGIS	VIYSDLRRTFYGDSVK	GRAADTFDS	nd nd nd	1/9 (2.98)
GFTVNTYGIS	VIYSDGRRTFYGDKVK	GRAAGTFDS	1.36 1.22 1.70	2/9 (3.57)
GFTLNSYGIH	VIYSDYRRTFYGDSVK	PRAAGTFDS	nd nd nd	0/9
GMTLNVLGIS	VIYSDGRRTFYGDSVK	GRAAGTFDS	nd nd nd	1/9 (3.73)
GFTLNSYGIS	VIYSDMRRTFYGDSVN	GRAQGTFDS	nd 3.28 3.69	6/9 (4.54)
GFTANSYGIS	VIYPDGRRTFYGESVK	GRAAGTFDS	nd 3.40 nd	1/9 (4.86)
GATLNDYGIS	VIYSDGRRTFIGDSVK	GRAAGTFDS	4.58 3.77 nd	7/9 (4.54)
GFTLNEYGIS	VIYSDGRRRFYGDSVQ	GRAAGTFDS	nd nd nd	1/9 (3.55)
GFTLNSYGIS	VITSDGRRKFYGDSVK	GRAAKTFDS	5.82 nd nd	5/9 (4.01)
GFTLNSYGIS	VIYSDGRRAFYGDSVK	GRAEGTFDS	nd 4.19 nd	4/9 (3.48)
GFTLNSYGMS	VIYSDGRRTFYRHSVK	GRAAGTFDS	nd nd nd	0/9
GFTLNSYGIL	VIYSDGERTFYGDSVK	GRACGTFDS	nd nd nd	2/9 (5.02)
GFTLNSYGIS	HIYSDGRRTFYGDSVK	CRAAGTFDS	nd nd nd	0/9
GFTLNSYGIS	VIYSDGSRTTYGDSVK	LRAAGTFDS	5.01 4.86 nd	3/9 (4.21)
VFTLNSYGIS	VIYSDGRRTFYMDSVG	GRAAGTFDS	nd nd nd	1/9 (3.25)
GHTHNSYGIM	VIYSDGRRTFYGDSVK	GRAAGTFDS	nd nd 6.11	2/9 (4.14)
GHTLNSYGIS	VIYSDGRRTFYGDSVK	GRAAGHFDS	2.36 2.03 2.40	1/9 (3.83)
GFTLNSTGMS	VIYSDGRRTFYGDSVK	GRAAGTFDS	nd 3.28 nd	1/9 (2.64)
GFTLNSYGIN	VGYSDGRRTFYGDCVK	GRAAGTFDS	nd 5.05 nd	2/9 (3.51)
GFTWNAYGIS	VIYSDGRRTFMGDSVK	GRAAGTFDS	nd nd 3.32	1/9 (4.20)
GFTLNSYGIS	VIYSDKRRTFYNDSVK	GRAASTFDS	nd nd 5.28	1/9 (4.45)
GFALNSYGIQ	VIYSDGRRTFYGDSVK	GRAAGTFDS	2.09 nd nd	0/9
QFTLNSYGIS	VIYSDPRRTFYGDSVK	GRAAGTFIS	nd nd nd	1/9 (3.09)
GFTEYPYGIS	VIYSDGRRTFYGDSVK	GRAAGTFDS	3.82 nd nd	1/9 (4.23)
GFTLQSYGIS	VIYSDGPRTFQGDSVK	GRAAGTFDS	4.54 nd 2.57	0/9
GFTLNSYGPS	VIYSDGRRTFYGDSVK	GREAETFDS	3.63 nd nd	5/9 (3.75)
GFTLNSYGIS	VIYSDGRRTEYGDSVK	FRAAGTFDS	5.45 3.40 6.19	2/9 (3.46)
HFQLNSYGIS	VIYSDGRRTFYGHSVK	GRAAGTFDS	2.82 2.83 nd	1/9 (3.55)

The opening 8 entries, copied out:

CDR-H1	CDR-H2	CDR-H3	log10 Kd, replicates	empty controls
GFTLNSYGIH	VIYSDHRRTFTGDSVK	GRAAGTFDS	nd nd 3.57	2/9 (4.19)
GHTLNSYGIS	VIDSDGRRTFYGDSVD	GRAAGTFDS	4.47 nd 5.20	5/9 (4.36)
GATLNSYGIS	VGYSDGRRTFYGASVK	GRAAGTFDS	4.55 4.06 5.15	7/9 (4.91)
GFTLTSYGIS	VIFSDGRRTFYGDSVK	HRAAGTFDS	nd nd nd	0/9
GFTLNSYGIS	VIYSDGRFTFYGDSVK	GRAAGTNVS	nd nd nd	0/9
GFTLNSPGIS	VIYSDGRRTFYGDSVK	GRAAGTFDS	nd nd nd	0/9
GFQLNSYGIS	VIYSDGRKTFYGDSVK	GRASGTFDS	nd nd nd	2/9 (3.46)
GFTLNSYPIS	VIYSDGRRTDYGDSVK	GCAAGTFDS	nd nd nd	3/9 (3.56)

From the AlphaSeq antibody data of Engelhart et al. 2022 (doi:10.1038/s41597-022-01779-4), copy in the FLAb collection.